Measured values taken from patent US20230295110A1, “PHD INHIBITOR COMPOUNDS, COMPOSITIONS, AND METHODS OF USE” (Akebia Therapeutics, Inc., priority 2020, published 2023).

By UniProt entry, the sequences of proteins in these tests, tags left out. Where a name states a change or a piece, a line headed by the entry shows the natural chain unless it says otherwise.
UniProt Q9GZT9: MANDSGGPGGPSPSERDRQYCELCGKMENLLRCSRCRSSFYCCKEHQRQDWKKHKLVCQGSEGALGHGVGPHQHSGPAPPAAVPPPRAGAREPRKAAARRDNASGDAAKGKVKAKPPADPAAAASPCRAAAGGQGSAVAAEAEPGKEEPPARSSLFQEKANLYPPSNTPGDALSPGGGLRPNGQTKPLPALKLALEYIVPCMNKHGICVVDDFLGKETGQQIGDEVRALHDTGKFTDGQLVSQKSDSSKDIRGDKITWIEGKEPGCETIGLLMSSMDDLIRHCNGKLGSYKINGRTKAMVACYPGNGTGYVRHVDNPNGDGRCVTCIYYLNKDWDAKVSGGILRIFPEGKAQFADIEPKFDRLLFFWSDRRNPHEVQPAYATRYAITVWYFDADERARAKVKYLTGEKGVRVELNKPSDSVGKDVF

Biological target: full-length human PHD2 (Homo sapiens (Human), UniProt Q9GZT9)
Assay: TR-FRET assay for PHD enzymes, PHD2
Conditions: read-out: Km of 2-OG for PHD2

## O=C(O)CCC(=O)C(=O)O [Compound 2-OG, 2-oxoglutarate, reference compound]
  Km: 0.0226 µM
